For assay [1], the target named is T1, human KOR (Homo sapiens, UniProt P41145). As to the kind of experiment: Inhibition of [3H]diprenorphine binding to CHO-hKOR membranes. Conditions: for affinity at the KOR (in words): current samples; for Ki: read-out: Ki ± SEM.
In assay [2] the target is T1, human KOR. The note with it: read-out: Ki at the KOR, previous report; cited from earlier work.

Amino acid sequences for entries named in this document (tags omitted).
UniProt P41145, whole entry: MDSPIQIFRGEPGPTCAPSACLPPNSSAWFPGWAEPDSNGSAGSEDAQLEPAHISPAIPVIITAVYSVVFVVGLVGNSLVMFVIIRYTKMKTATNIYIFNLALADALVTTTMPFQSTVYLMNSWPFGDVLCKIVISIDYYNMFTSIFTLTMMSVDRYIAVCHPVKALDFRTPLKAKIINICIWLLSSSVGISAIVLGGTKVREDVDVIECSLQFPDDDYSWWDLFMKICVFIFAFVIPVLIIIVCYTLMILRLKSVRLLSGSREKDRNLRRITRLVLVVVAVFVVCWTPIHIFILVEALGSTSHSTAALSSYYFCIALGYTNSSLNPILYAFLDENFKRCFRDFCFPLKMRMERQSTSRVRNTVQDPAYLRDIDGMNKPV

Structures are written as SMILES. Like-named read-outs stand apart in the source and are kept apart here.

Usually Ki stands for the dissociation constant of the complex between target and ligand, obtained from inhibition or displacement. `CC(=O)O[C@H]1C[C@@H](C(=O)O)[C@]2(C)CC[C@H]3C(=O)O[C@H](c4ccoc4)C[C@]3(C)[C@H]2C1=O`: the “affinity at the KOR (in words)” value at human KOR [1] is given as “no affinity”. For the same molecule, the Ki was > 10 µM on human KOR [1] and > 1 µM on human KOR [2].
For the molecule `CC(=O)O[C@H]1C[C@@H](C(=O)O)[C@]2(C)CC[C@@H]3C(=O)O[C@H](c4ccoc4)C[C@]3(C)[C@H]2C1=O`, at human KOR [1], the “affinity at the KOR (in words)” value is recorded as “no affinity” and the Ki is > 10 µM. In addition, the Ki at human KOR [2] is 0.049 µM.

The record behind these values is publication PMC1805503 (Beilstein Journal of Organic Chemistry, 2007).
